Test results taken from paper PMC4291147, “Molecular Basis of Histone Tail Recognition by Human TIP5 PHD Finger and Bromodomain of the Chromatin Remodeling Complex NoRC” (Structure(London, England:1993), 2015).

Biological target: T1, TIP5 BRD (Homo sapiens, UniProt Q9UIF9)
T1 construct: (residues 1797- 1899 for TIP5, residues); hexa-histidine (pNIC28-Bsa4, TEV site) (N, cleaved yes); made in house; host or cells: E. coli BL21(DE3) Rosetta or BL21(DE3)-R3-pRARE2
T1 sequence (Q9UIF9 1797-1899): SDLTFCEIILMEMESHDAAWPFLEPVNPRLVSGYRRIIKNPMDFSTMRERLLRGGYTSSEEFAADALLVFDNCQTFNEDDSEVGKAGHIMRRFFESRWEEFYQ
Assay: ITC, histone peptide binding to TIP5 BRD
Method: All calorimetric experiments were performed on an ITC200 or VP-ITC microcalorimeters (MicroCal). […] The data were analyzed with the MicroCal ORIGIN software package using, in most cases, a single binding site model. The first data point was excluded from the analysis. […]
The cDNAs encoding tandem PHD zinc finger and bromodomain of human TIP5 […]
GeneBank: Q9UIF8) were synthesized by GenScript with codons optimized f or E. coli. expression and were subcloned into a modif ied pET15 vector using NdeI/XhoI sites f or expression as recombinant proteins with a His6 tag fused with small ubiquitin like modifier (SUMO)-1 fusion tag at the N terminus. cDNA sequences were used as a […]
Single PHD zinc f ingers were introduced into the same modif ied SUMO tagged plasmid whereas single bromodomains were f urther subcloned into pET28 derived expression vectors, pNIC28- Bsa4 using ligation independent […]
Protein Expression and Purification […]
competent BL21(DE3) Rosetta cells (Invitrogen) or into BL21 (DE3)-R3-pRARE2 cells (phage- resistant derivative with a pRARE plasmid encoding rare codon tRNAs). Cells were grown at 37 °C in Terrific Broth (Sigma) from overnight cultures until A600 reached between 0.6- 0.8, then the media was cooled and 0.2 mM isopropyl-β-Dthiogalactopyranoside (IPTG) was added to induce the protein expression at 20 °C f or 16 hours. […]

- Kd: 65.91 ± 0.46 µM
SMILES: CC(=O)NCCCC[C@H](NC(=O)CNC(=O)CNC(=O)[C@H](CCCCNC(C)=O)NC(=O)CNC(=O)[C@H](CCCNC(=N)N)NC(=O)CNC(=O)[C@@H](N)CO)C(=O)NCC(=O)N[C@@H](CC(C)C)C(=O)O [H4(1–10)K5acK8ac]
